Three molecules from ChEMBL document CHEMBL1140700, “Substituted pyrazoles as hepatoselective HMG-CoA reductase inhibitors: discovery of (3R,5R)-7-[2-(4-fluoro-phenyl)-4-isopropyl-5-(4-methyl-benzylcarbamoyl)-2H-pyrazol-3-yl]-3,5-dihydroxyheptanoic acid (PF-3052334) as a candidate for the treatment of hypercholesterolemia” (J Med Chem, 2008) can be followed below.

Usually IC50 stands for the midpoint of a concentration-inhibition curve. A lower IC50 goes with greater potency.

Assay [1] deals with T1, 3-hydroxy-3-methylglutaryl-coenzyme A reductase (Rattus norvegicus, UniProt P51639).
T1 sequence (P51639 whole entry): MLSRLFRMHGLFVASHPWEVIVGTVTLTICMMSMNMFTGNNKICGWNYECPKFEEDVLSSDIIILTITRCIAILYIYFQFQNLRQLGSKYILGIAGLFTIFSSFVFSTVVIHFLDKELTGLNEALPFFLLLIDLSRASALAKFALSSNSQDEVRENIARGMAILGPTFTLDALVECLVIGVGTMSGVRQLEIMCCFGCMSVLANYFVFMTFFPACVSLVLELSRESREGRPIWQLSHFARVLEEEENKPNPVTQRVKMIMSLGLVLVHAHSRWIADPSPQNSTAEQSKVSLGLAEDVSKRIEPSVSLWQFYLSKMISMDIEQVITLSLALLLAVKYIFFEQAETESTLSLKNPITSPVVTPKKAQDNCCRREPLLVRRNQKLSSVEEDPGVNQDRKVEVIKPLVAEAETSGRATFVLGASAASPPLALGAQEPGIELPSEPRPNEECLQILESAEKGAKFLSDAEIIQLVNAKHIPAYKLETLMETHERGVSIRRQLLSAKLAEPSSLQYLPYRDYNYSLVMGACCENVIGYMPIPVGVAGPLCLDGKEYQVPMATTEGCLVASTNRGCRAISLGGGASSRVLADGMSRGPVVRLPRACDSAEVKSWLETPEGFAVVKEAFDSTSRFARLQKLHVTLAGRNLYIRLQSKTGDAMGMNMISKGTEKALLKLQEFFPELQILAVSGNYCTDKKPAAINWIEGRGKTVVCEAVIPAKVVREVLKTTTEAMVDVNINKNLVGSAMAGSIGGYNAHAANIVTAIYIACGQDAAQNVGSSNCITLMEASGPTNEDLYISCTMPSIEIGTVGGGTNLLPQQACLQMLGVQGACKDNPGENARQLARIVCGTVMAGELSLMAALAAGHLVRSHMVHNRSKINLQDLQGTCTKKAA
The experiment in a line: Inhibition of HMG-CoA reductase in Sprague-Dawley rat liver microsomes. Also on record: species or system Microsome.

The test system of assay [2] is Hepatocyte. The experiment in a line: Ratio of IC50 for cholesterol synthesis in rat myocytes to rat hepatocytes. The assay is classed as functional.

`CC(C)c1c(C(=O)Nc2ccccc2)c(-c2ccccc2)c(-c2ccc(F)cc2)n1CC[C@@H](O)C[C@@H](O)CC(=O)O` [ATORVASTATIN] displayed an IC50 in assay [1] of 12 nM. Molecule `CC(C)c1c(C(=O)N(C)[C@@H](C)c2ccccc2)nn(-c2ccc(F)cc2)c1CC[C@@H](O)C[C@@H](O)CC(=O)O` came in with an IC50 in assay [1] of 45 nM. `CC(C)c1c(C(=O)N(C)[C@H](C)c2ccccc2)nn(-c2ccc(F)cc2)c1CC[C@@H](O)C[C@@H](O)CC(=O)[O-].[Na+]` gave an IC50 in assay [1] of 1.5 nM. For the same molecule, the “Ratio IC50” value in assay [2] was found to be 6300.
